Results reported in US20030203373A1 (priority 2002, published 2003).

Target: T1, ACE from pig kidney (Sus scrofa, UniProt F1RRW5)
T1 construct: 1 mU ACE from pig kidney (EC 3.4.15.1 (Sigma)); purchased Sigma; host or cells: pig kidney (tissue-derived enzyme)
T1 sequence (F1RRW5 34-1309): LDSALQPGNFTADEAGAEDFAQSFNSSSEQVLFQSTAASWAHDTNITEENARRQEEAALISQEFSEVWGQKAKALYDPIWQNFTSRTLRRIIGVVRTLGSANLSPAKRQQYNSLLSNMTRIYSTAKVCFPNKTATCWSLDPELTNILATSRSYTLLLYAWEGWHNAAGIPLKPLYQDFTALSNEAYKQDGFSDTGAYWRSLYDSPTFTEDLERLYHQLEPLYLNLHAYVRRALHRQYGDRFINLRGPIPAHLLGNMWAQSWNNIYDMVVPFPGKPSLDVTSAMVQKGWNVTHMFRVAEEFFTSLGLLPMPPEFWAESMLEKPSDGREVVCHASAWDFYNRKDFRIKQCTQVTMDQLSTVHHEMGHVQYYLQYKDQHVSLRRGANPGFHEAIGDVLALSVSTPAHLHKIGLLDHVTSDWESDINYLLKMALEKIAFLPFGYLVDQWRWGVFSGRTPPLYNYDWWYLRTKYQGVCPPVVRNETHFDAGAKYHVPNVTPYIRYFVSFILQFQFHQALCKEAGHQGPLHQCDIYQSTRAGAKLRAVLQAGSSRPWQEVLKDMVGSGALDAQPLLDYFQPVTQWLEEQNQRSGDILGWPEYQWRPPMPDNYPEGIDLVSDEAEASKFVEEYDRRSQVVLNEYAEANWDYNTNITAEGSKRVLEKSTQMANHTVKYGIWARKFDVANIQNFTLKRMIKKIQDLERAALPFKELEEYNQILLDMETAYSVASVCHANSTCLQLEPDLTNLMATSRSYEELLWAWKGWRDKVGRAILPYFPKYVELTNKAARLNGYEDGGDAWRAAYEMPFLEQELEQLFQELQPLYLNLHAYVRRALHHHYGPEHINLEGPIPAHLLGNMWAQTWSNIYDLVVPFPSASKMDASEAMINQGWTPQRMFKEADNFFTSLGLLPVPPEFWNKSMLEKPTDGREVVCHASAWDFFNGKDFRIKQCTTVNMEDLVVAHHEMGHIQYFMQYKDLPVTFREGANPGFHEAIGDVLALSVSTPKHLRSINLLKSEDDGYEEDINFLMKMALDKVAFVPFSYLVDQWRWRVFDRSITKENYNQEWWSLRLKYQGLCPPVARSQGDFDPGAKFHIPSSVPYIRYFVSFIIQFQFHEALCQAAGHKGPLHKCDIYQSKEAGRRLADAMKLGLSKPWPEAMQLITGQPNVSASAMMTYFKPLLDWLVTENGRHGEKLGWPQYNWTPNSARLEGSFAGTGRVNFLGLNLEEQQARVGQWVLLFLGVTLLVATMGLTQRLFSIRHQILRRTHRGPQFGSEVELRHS
Experiment: biochemical

[1] = inhibitor 3.125 μM, replicates A-D
[2] = inhibitor 6.25 μM, replicates A-D
[3] = inhibitor 12.5 μM, replicates A-D
[4] = inhibitor 25 μM, replicates A-D
[5] = inhibitor 50 μM, replicates A-D
[6] = inhibitor 100 μM, replicates A-D
[7] = inhibitor 200 μM, replicates A-D

## CC(C)C[C@H](NC(=O)[C@H](C)NC(=O)[C@@H]1CCC(=O)N1)C(=O)N[C@@H](CO)C(=O)N1CCC[C@H]1C(=O)N[C@@H](CC(C)C)C(=O)N1CCC[C@H]1C(=O)N[C@@H](CCC(=O)O)C(=O)N[C@H](C(=O)N1CCC[C@H]1C(=O)N1CCC[C@H]1C(=O)O)C(C)C [Peptide S493]
  IC50: 20 µM

## CC(C)C[C@H](NC(=O)[C@H](C)NC(=O)[C@H](C)NC(=O)CNC(=O)[C@H](C)NC(=O)[C@H](CCC(=O)O)NC(=O)[C@@H](N)CCC(=O)O)C(=O)N[C@@H](CO)C(=O)N1CCC[C@H]1C(=O)N[C@@H](CC(C)C)C(=O)N1CCC[C@H]1C(=O)N[C@@H](CCC(=O)O)C(=O)N[C@H](C(=O)N1CCC[C@H]1C(=O)N1CCC[C@H]1C(=O)O)C(C)C [Peptide S541]
ACE from pig kidney, determined graphically, read-out: IC50-value (ACE inhibition)
  IC50: 48 µM
Inhibitor 0.39 μM, replicates A-D
  fluorescence reading (ACE Inhibitor Assay): 955811 and 921346 and 917688 and 967573
Inhibitor 0.39 μM, replicates A-D, 0.39 µM
  % inhibition (ACE Inhibitor Assay): 2.03% and 5.58% and 5.96% and 0.82%
Inhibitor 0.78125 μM, replicates A-D
  fluorescence reading (ACE Inhibitor Assay): 907185 and 888487 and 903844 and 943566
Inhibitor 0.78125 μM, replicates A-D, 0.78125 µM
  % inhibition (ACE Inhibitor Assay): 7.04% and 8.96% and 7.38% and 3.3%
Inhibitor 1.5625 μM, replicates A-D
  fluorescence reading (ACE Inhibitor Assay): 904012 and 844202 and 857232 and 946248
Inhibitor 1.5625 μM, replicates A-D, 1.5625 µM
  % inhibition (ACE Inhibitor Assay): 7.36% and 13.52% and 12.18% and 3.02%
[1]
  fluorescence reading (ACE Inhibitor Assay): 803411 and 810684 and 810188 and 859457
  inhibition at 3.125 µM: 17.7%
Inhibitor 3.125 μM, replicates A-D, 3.125 µM
  % inhibition (ACE Inhibitor Assay): 16.97% and 17.03% and 11.95%
[2]
  fluorescence reading (ACE Inhibitor Assay): 836560 and 809014 and 817520 and 879836
  inhibition at 6.25 µM: 14.3%
Inhibitor 6.25 μM, replicates A-D, 6.25 µM
  % inhibition (ACE Inhibitor Assay): 17.15% and 16.27% and 9.85%
[3]
  fluorescence reading (ACE Inhibitor Assay): 788769 and 769930 and 757658 and 781107
  inhibition at 12.5 µM: 21.5%
Inhibitor 12.5 μM, replicates A-D, 12.5 µM
  % inhibition (ACE Inhibitor Assay): 21.17% and 22.44% and 20.02%
[4]
  fluorescence reading (ACE Inhibitor Assay): 639406 and 631484 and 614518 and 661658
  inhibition at 25 µM: 34.6%
Inhibitor 25 μM, replicates A-D, 25 µM
  % inhibition (ACE Inhibitor Assay): 35.43% and 37.18% and 32.32%
[5]
  fluorescence reading (ACE Inhibitor Assay): 480002 and 474783 and 474901 and 490677
  inhibition at 50 µM: 51%
Inhibitor 50 μM, replicates A-D, 50 µM
  % inhibition (ACE Inhibitor Assay): 51.57% and 51.55% and 50.07%
[6]
  fluorescence reading (ACE Inhibitor Assay): 346560 and 319033 and 313789 and 351975
  inhibition at 100 µM: 64.8%
Inhibitor 100 μM, replicates A-D, 100 µM
  % inhibition (ACE Inhibitor Assay): 67.6% and 68.17% and 64.21%
[7]
  fluorescence reading (ACE Inhibitor Assay): 208164 and 201991 and 204112 and 215674
  inhibition at 200 µM: 79%
Inhibitor 200 μM, replicates A-D, 200 µM
  % inhibition (ACE Inhibitor Assay): 79.86% and 79.44% and 78.25%

## CC(C)[C@H](NC(=O)[C@H](CC(N)=O)NC(=O)[C@H](CCC(=O)O)NC(=O)[C@H](CC(=O)O)NC(=O)[C@H](CO)NC(=O)[C@H](C)NC(=O)[C@H](CCCNC(=N)N)NC(=O)[C@@H]1CCCN1)C(=O)N1CCC[C@H]1C(=O)N1CCC[C@H]1C(=O)O [Peptide S683]
  IC50: 65 µM

Values joined by “and” are separate entries in the source; they are usually repeats but may differ in a detail not shown here. Equal entries are not always repeated. Where two headings read alike, the source gives them in different places.
